Where two headings read alike, the source gives them in different places.

One experiment has as its target HLA-B*5401 (human). The experiment is described as follows: competition vs 125I probe peptide, purified HLA.
For the next experiment, the target named is HLA-B*5101 (human). Briefly: competition vs 125I probe peptide, purified HLA.
Another experiment concerns the target HLA-B*0702 (human). The experiment is described as follows: competition vs 125I probe peptide, purified HLA.
In experiment [1] the target is HLA-A*2402 (human). Briefly: competition vs 125I probe peptide, purified HLA.
For another experiment, the target named is HLA-DRB1*0101 (human). The experiment is described as follows: inhibition of 125I probe peptide binding to purified HLA.
The target in the next experiment is HLA-B*3501 (human). Briefly: competition vs 125I probe peptide, purified HLA.
The target in another experiment is HLA-B*5301 (human). Briefly: competition vs 125I probe peptide, purified HLA.
The target of another experiment is HLA-A*0202 (human). The experiment is described as follows: competition with 125I probe peptide, purified HLA.
The target of the next experiment is HLA-A*6802 (human). The experiment is described as follows: competition with 125I probe peptide, purified HLA.
The target of the next experiment is HLA-A*0201 (human). Briefly: competition with 125I probe peptide, purified HLA.
Experiment [2] addresses HLA-A*2402 (human). The experiment is described as follows: competition vs 125I probe peptide, purified HLA. This is another data set of the same source.
The next experiment deals with HLA-A*0101 (human). Briefly: competition vs 125I probe peptide, purified HLA.
The target of a further experiment is HLA-A*6801 (human). Briefly: competition with 125I probe peptide, purified HLA.
The next experiment deals with HLA-A*1101 (human). The experiment is described as follows: competition with 125I probe peptide, purified HLA.
For the next experiment, the target named is HLA-A*3101 (human). Briefly: competition with 125I probe peptide, purified HLA.
The target of the next experiment is HLA-A*3301 (human). Briefly: competition with 125I probe peptide, purified HLA.

B1: MAGE3.77.F1 FPLWSQSI (peptide)
peptide: FPLWSQSI
On to B1, for which the IC50 in the experiment with HLA-B*5401 stood at 15 nM.

B2: MAGE2.241.F1 FPRKLLMQDLI (peptide)
peptide: FPRKLLMQDLI
As to B2, the IC50 with HLA-B*5101 is 367 nM; with HLA-B*0702, 86 nM.

B3: MAGE2.150.Y2F9 IYSKASEYF (peptide)
peptide: IYSKASEYF
B3: in the experiment with HLA-A*2402 [1], the IC50 was 14.6 nM.

B4: MAGE2.193 (peptide)
peptide: NQVMPKTGLLIIVLA
In the case of B4, in the experiment with HLA-DRB1*0101, the IC50 was found to be 2630 nM.

B5: MAGE3.71.I9 LPTTMNYPI (peptide)
peptide: LPTTMNYPI
B5: the values for the half-inhibitory concentration (IC50) with HLA-B*3501 and in the experiment with HLA-B*5401 were 343 nM and 4.2 nM, respectively.

B6: MAGE2.196.F1 FPKTGLLII (peptide)
peptide: FPKTGLLII
As to B6, the half-inhibitory concentration (IC50) with HLA-B*5301 was 266 nM; with HLA-B*5101, 32 nM.

B7: MAGE3.150.Y2F9 IYSKASSSF (peptide)
peptide: IYSKASSSF
As to B7, the concentration for half-maximal inhibition (IC50) in the experiment with HLA-A*2402 [1] came out at 375 nM. That is a sub-micromolar value.

B8: MAGE3.196.F1I8 FPKAGLLI (peptide)
peptide: FPKAGLLI
Molecule B8 had an IC50 with HLA-B*5101 of 8.2 nM.

B9: MAGE2.196.F1I8 FPKTGLLI (peptide)
peptide: FPKTGLLI
The molecule B9 gave a concentration for half-maximal inhibition (IC50) in the experiment with HLA-B*5401 of 37 nM.

B10: MAGE2.195.Y2F10 VYPKTGLLIF (peptide)
peptide: VYPKTGLLIF
Turning to B10, the half-inhibitory concentration (IC50) with HLA-A*2402 [1] stood at 2.9 nM.

B11: MAGE3.142.Y2F9 NYQYFFPVF (peptide)
peptide: NYQYFFPVF
Molecule B11 gave a half-inhibitory concentration (IC50) in the experiment with HLA-A*2402 [1] of 3.4 nM.

B12: MAGE2.70.Y2F10 SYSTTINYTF (peptide)
peptide: SYSTTINYTF
In turn, B12 displayed an IC50 with HLA-A*2402 [1] of 14.8 nM.

B13: MAGE3.170.F1I10 FPIGHLYIFI (peptide)
peptide: FPIGHLYIFI
For B13, the half-inhibitory concentration (IC50) with HLA-B*5101 was determined as 5.7 nM; with HLA-B*5401, 2.9 nM; with HLA-B*0702, 63 nM.

B14: MAGE3.195.Y2F10 IYPKAGLLIF (peptide)
peptide: IYPKAGLLIF
In the experiment with HLA-A*2402 [1], B14 yielded an IC50 of 1.2 nM.

B15: MAGE3.193 (peptide)
peptide: NQIMPKAGLLIIVLA
For the molecule B15, the half-inhibitory concentration (IC50) in the experiment with HLA-DRB1*0101 amounted to 114 nM.

B16: MAGE3.112M2 KMAELVHFL (peptide)
peptide: KMAELVHFL
On to B16, for which the IC50 in the experiment with HLA-A*0202 was determined as 6.7 nM; in the experiment with HLA-A*6802 it was 286 nM; with HLA-A*0201, 24 nM.

B17: MAGE3.112M2V9 KMAELVHFV (peptide)
peptide: KMAELVHFV
Take B17: the IC50 with HLA-A*0201 came to 26 nM.

B18: MAGE3.300 SYPPLHEW (peptide)
peptide: SYPPLHEW
Regarding B18, the concentration for half-maximal inhibition (IC50) with HLA-A*2402 [2] and in the experiment with HLA-A*2402 [1] was 286 nM in each case.

B19: MAGE2.199 (peptide)
peptide: TGLLIIVLAIIAIEG
The molecule B19 registered a half-maximal inhibitory concentration (IC50) with HLA-DRB1*0101 of 6250 nM.

B20: MAGE3.196.F1I10 FPKAGLLIII (peptide)
peptide: FPKAGLLIII
In the case of B20, the figures for the IC50 with HLA-B*3501 and in the experiment with HLA-B*0702 were 2670 nM and 204 nM, respectively.

B21: MAGE2.69.T2 STFSTTINY (peptide)
peptide: STFSTTINY
In turn, B21 had a half-inhibitory concentration (IC50) with HLA-A*0101 of 490 nM.

B22: MAGE3.196.V3 MPVAGLLII (peptide)
peptide: MPVAGLLII
Turning to B22, the IC50 in the experiment with HLA-B*5101 was found to be 1.2 nM; with HLA-B*0702, 86 nM.

B23: MAGE2.69.V2R9 SVFSTTINR (peptide)
peptide: SVFSTTINR
Take B23: the IC50 with HLA-A*6801 was determined as 6.7 nM; in the experiment with HLA-A*1101, 6.3 nM; with HLA-A*3101, 62 nM; with HLA-A*3301, 88 nM.

B24: MAGE2.68.T2 ATSFSTTINY (peptide)
peptide: ATSFSTTINY
B24 registered a half-maximal inhibitory concentration (IC50) in the experiment with HLA-A*0101 of 455 nM.

B25: MAGE2.112.Y2F9 KYVELVHFF (peptide)
peptide: KYVELVHFF
With B25, the IC50 with HLA-A*2402 [1] was determined as 7.1 nM.

B26: MAGE2.296.F1 FPHISYPPL (peptide)
peptide: FPHISYPPL
Take B26: the IC50 with HLA-B*5301 worked out at 490 nM; with HLA-B*5401 it was 3.8 nM; with HLA-B*0702, 1.7 nM.

B27: MAGE3.296.F1I9 FPHISYPPI (peptide)
peptide: FPHISYPPI
The molecule B27 came in with an IC50 in the experiment with HLA-B*0702 of 2.9 nM.

B28: MAGE3.97.Y2 TYPDLESEF (peptide)
peptide: TYPDLESEF
For the molecule B28, the IC50 with HLA-A*2402 [2] and with HLA-A*2402 [1] was 218 nM each time.

B29: MAGE2.274.F1 FPRALIETSYV (peptide)
peptide: FPRALIETSYV
With B29, the figures for the IC50 with HLA-B*5401 and with HLA-B*0702 were 7.1 nM and 6.3 nM, respectively.

B30: MAGE3.274.F1 FPRALVETSYV (peptide)
peptide: FPRALVETSYV
Turning to B30, the values for the IC50 with HLA-B*5101 and with HLA-B*0702 were 204 nM and 4.2 nM, respectively.

B31: MAGE3.274.F1I11 FPRALVETSYI (peptide)
peptide: FPRALVETSYI
In the experiment with HLA-B*5101, B31 yielded a 50% inhibitory concentration (IC50) of 117 nM.

B32: MAGE3.68.D3 ASDLPTTMNY (peptide)
peptide: ASDLPTTMNY
B32 had a half-maximal inhibitory concentration (IC50) with HLA-A*0101 of 2.6 nM.

B33: MAGE3.68.T2 ATSLPTTMNY (peptide)
peptide: ATSLPTTMNY
B33: the IC50 with HLA-A*0101 worked out at 208 nM.

B34: MAGE3.71.F1 FPTTMNYPLW (peptide)
peptide: FPTTMNYPLW
The molecule B34 displayed an IC50 with HLA-B*5401 of 42 nM.

B35: MAGE2.179.D3 VTDLGLSY (peptide)
peptide: VTDLGLSY
B35 returned a half-maximal inhibitory concentration (IC50) with HLA-A*0101 of 2.7 nM.

B36: MAGE3.195.Y2F9 IYPKAGLLF (peptide)
peptide: IYPKAGLLF
Regarding B36, the concentration for half-maximal inhibition (IC50) with HLA-A*2402 [1] was 9.2 nM.

B37: MAGE2.282.F10 SYVKVLHHTF (peptide)
peptide: SYVKVLHHTF
In the case of B37, the IC50 with HLA-A*2402 [2] was determined as 34 nM; with HLA-A*2402 [1], 34.3 nM.

B38: MAGE3.170.F1I9 FPIGHLYII (peptide)
peptide: FPIGHLYII
In the experiment with HLA-B*3501, B38 yielded an IC50 of 77 nM.

B39: MAGE3.199 (peptide)
peptide: AGLLIIVLAIIAREG
B39: in the experiment with HLA-DRB1*0101, the 50% inhibitory concentration (IC50) is 1110 nM.

A word on the IC50: it is the point on the concentration scale where inhibition reaches its midpoint. Higher therefore signals lower potency.
